Converted amounts (≈) assume the structure as drawn.
Legend:
[1] = biological target: Mtb AccD6 (Mycobacterium tuberculosis, UniProt P9WQH5); assay: biochemical
[2] = tested on: Mtb strain mc^2-7000; assay: microbe, parasite or virus in culture; assay type: cell-based; details: Mycobacterium tuberculosis, 144 h

Chains of the proteins cited; added tags and fusions are not shown. Lines headed by an entry give the natural chain unless they say otherwise; changes in a name come on top.
UniProt P9WQH5: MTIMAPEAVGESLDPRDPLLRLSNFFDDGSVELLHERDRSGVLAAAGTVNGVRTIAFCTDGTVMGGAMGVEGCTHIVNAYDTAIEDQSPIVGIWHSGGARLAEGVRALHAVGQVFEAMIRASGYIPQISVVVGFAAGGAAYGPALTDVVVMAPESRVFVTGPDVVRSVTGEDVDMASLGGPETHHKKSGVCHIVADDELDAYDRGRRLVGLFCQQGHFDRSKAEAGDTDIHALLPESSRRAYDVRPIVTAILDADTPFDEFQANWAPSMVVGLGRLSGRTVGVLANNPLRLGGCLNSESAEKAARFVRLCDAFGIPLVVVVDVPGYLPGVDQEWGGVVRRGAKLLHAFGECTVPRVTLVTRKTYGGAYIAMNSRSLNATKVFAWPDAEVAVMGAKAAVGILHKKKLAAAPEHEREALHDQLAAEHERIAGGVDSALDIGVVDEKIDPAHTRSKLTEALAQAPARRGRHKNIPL

SMILES	IC50 [1]	MIC [2]
Cn1nnc(COc2ccc(Oc3cnc4cc(Cl)ccc4n3)cc2)n1 [NZ-269, 6-chloro-2-{4-[(2-methyl-2H-1,2,3,4-tetrazol-5-yl)methoxy]phenoxy}quinoxaline]	15.8 µM	> 50 µM
COC(=O)Cc1ccc(Oc2nc3ccc(Cl)cc3s2)cc1 [NZ-284, methyl 2-{4-[(6-chloro-1,3-benzothiazol-2-yl)oxy]phenyl}acetate]	17 µM	4.5 µM
CONC(=O)[C@@H](C)Oc1ccc(Oc2nc3ccc(F)cc3s2)cc1 [NZ-289, (2R)-2-{4-[(6-fluoro-1,3-benzothiazol-2-yl)oxy]phenoxy}-N-methoxypropanamide]	6.1 µM	0.35 µM (≈ 0.127 µg/mL)
CONC(=O)[C@@H](C)Oc1ccc(Oc2nc3ccc(Cl)cc3o2)cc1 [NZ-296, (2R)-2-{4-[(6-chloro-1,3-benzoxazol-2-yl)oxy]phenoxy}-N-methoxypropanamide]	1.8 µM	3 µM (≈ 1.09 µg/mL)
COC(=O)Cc1ccc(Oc2cnc3cc(Cl)ccc3n2)cc1 [NZ-297, methyl 2-{4-[(6-chloroquinoxalin-2-yl)oxy]phenyl}acetate]	10 µM	12 µM
COC(=O)C(C)c1ccc(Oc2nc3ccc(Cl)cc3s2)cc1 (stereo not shown) [NZ-311, methyl 2-{4-[(6-chloro-1,3-benzothiazol-2-yl)oxy]phenyl}propanoate]	10 µM	3 µM (≈ 1.04 µg/mL)
CC(C)NC(=O)Nc1ccc(Oc2cnc3cc(Cl)ccc3n2)cc1 [NZ-322, 1-{4-[(6-chloroquinoxalin-2-yl)oxy]phenyl}-3-(propan-2-yl)urea]	0.092 µM	12 µM (≈ 4.28 µg/mL)
COC(=O)C(C)c1ccc(Oc2nc3ccc(OC)cc3s2)cc1 (stereo not shown) [NZ-333, methyl 2-{4-[(6-methoxy-1,3-benzothiazol-2-yl)oxy]phenyl}propanoate]	12.5 µM	12 µM (≈ 4.12 µg/mL)
O=C1NCCN1c1ccc(Oc2nc3ccc(Cl)cc3s2)cc1 [NZ-341, 1-{4-[(6-chloro-1,3-benzothiazol-2-yl)oxy]phenyl}imidazolidin-2-one]	2.6 µM	12 µM (≈ 4.15 µg/mL)
CNC(=O)Nc1ccc(Oc2cnc3cc(Cl)ccc3n2)cc1 [NZ-342, 1-{4-[(6-chloroquinoxalin-2-yl)oxy]phenyl}-3-methylurea]	0.6 µM	50 µM (≈ 16.4 µg/mL)
CC(C)NC(=O)Nc1ccc(Oc2nc3ccc([N+](=O)[O-])cc3s2)cc1 [NZ-363, 1-{4-[(6-nitro-1,3-benzothiazol-2-yl)oxy]phenyl}-3-(propan-2-yl)urea]	4.7 µM	> 50 µM

From patent US10300071B2, “Compositions and methods for inhibition of mycobacteria” (priority 2014, dated 2019)
